This note sets out measurements from US8853281B2, “Cysteine protease inhibitors” (Medivir UK Ltd, priority 2008, dated 2014).

Sequences of proteins named here, by UniProt entry; tags and fusion partners are left off. Residues count along the entry.
UniProt P25774, 115-331 limits assumed: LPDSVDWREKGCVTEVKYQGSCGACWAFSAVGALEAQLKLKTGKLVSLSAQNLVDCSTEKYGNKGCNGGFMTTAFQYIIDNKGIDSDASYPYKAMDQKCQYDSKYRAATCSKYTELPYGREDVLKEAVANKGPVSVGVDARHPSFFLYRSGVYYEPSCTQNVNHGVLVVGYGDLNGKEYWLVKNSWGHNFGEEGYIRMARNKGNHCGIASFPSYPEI
UniProt P43235, 115-329 limits assumed: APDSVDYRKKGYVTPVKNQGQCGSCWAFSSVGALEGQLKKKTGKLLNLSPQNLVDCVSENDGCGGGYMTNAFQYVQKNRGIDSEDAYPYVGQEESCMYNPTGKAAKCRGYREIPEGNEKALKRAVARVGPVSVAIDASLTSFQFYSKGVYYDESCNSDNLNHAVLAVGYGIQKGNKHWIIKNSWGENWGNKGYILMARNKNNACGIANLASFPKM
UniProt P07711, 114-333 limits assumed: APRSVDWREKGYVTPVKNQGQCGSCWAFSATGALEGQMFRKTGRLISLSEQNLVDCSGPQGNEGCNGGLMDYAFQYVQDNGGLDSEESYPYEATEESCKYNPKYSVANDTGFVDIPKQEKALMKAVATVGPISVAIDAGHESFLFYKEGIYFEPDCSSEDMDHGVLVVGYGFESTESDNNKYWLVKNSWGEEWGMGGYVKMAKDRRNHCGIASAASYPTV

Test [1] deals with human cathepsin S (Homo sapiens, UniProt P25774). Description: Cathepsin S Ki determination (boc-Val-Leu-Lys-AMC fluorescent substrate). The note with it: read-out: Ki Cat. S; baculovirus-expressed human cathepsin S 2 nM, pH 6.5, competitive inhibition fit. As for the experimental part:
Cathepsin S Ki Determination
The assay uses baculovirus-expressed human cathepsin S and the boc-Val-Leu-Lys-AMC fluorescent substrate available from Bachem in a 384 well plate format, in which 7 test compounds can be tested in parallel with a positive control comprising a known cathepsin S inhibitor comparator.
280 μl/well of 12.5% DMSO are added to rows B-H of two columns of a 96 deep well polypropylene plate. 70 μl/well of substrate is added to row A. 2×250 μl/well of assay buffer (100 mM Na phosphate, 100 mM NaCl, pH 6.5) is added to row A, mixed, and double diluted down the plate to row H. […]
The first test compound prepared in DMSO is added to column 1 of the top row, typically at a volume to provide between 10 and 30 times the initially determined rough Ki. […] Add 90 μl assay buffer containing 1 mM DTT and 2 nM cathepsin S to each well of rows B-H and 180 μl to row A. Mix row A using a multichannel pipette and double dilute to row G. Mix row H and read in the fluorescent spectrophotometer. […]
Using the a distributor such as a Multidrop 384, add 30 μl/well to all wells of the assay plate and read in fluorescent spectrophotomoter such as an Ascent. […]
(§1) Potential inhibitors are screened using the above assay with variable concentrations of test compound. […] Ki values were calculated according to equation 1. […]

The target in test [2] is cathepsin K (Homo sapiens, UniProt P43235). Description: Determination of cathepsin K proteolytic catalytic activity (H-D-Ala-Leu-Lys-AMC fluorogenic substrate). The settings on record: read-out: Ki Cat. K; human recombinant enzyme 5 nM, ambient temperature. The method, then: Determination of Cathepsin K Proteolytic Catalytic Activity
Convenient assays for cathepsin K are carried out using human recombinant enzyme, such as that described in PDB.
DE Homo sapiens cathepsin K (pycnodysostosis), mRNA (cDNA clone MGC:23107
The recombinant cathepsin K can be expressed in a variety of commercially available expression systems including E coli, Pichia and Baculovirus systems. The purified enzyme is activated by removal of the prosequence by conventional methods.
Standard assay conditions for the determination of kinetic constants used a fluorogenic peptide substrate, typically H-D-Ala-Leu-Lys-AMC, and were determined in either 100 mM Mes/Tris, pH 7.0 containing 1 mM EDTA and 10 mM 2-mercaptoethanol or 100 mMNa phosphate, imM EDTA, 0.1% PEG4000 pH 6.5 or 100 mM Na acetate, pH 5.5 containing 5 mM EDTA and 20 mM cysteine, in each case optionally with […] as stabiliser. The enzyme concentration used was 5 nM. The stock substrate solution was prepared at 10 mM in DMSO. […] Product fluorescence (excitation at 390 nm, emission at 460 nm) was monitored with a Labsystems Fluoroskan Ascent fluorescent plate reader. […]
as §1

In test [3] the target is human cathepsin L (Homo sapiens, UniProt P07711). Description: Cathepsin L Ki (H-D-Val-Leu-Lys-AMC substrate). The note with it: read-out: Ki Cat. L; human cathepsin L 5 nM, sodium acetate pH 5.5. As for the experimental part: The procedure above with the following amendments is used for the determination of Ki for cathepsin L.
The enzyme is commercially available human cathepsin L (for example Calbiochem). The substrate is H-D-Val-Leu-Lys-AMC available from Bahcem. The assay buffer is 100 mM sodium acetate 1 mM EDTA, pH5.5) The DMSO stock (10 mM in 100% DMSO) is diluted to 10% in assay buffer. Enzyme is prepared at 5 nM concentration in assay buffer plus 1 mM dithiothreitol just before use. 2 ul of 10 mM inhibitor made up in 100% DMSO is dispensed into row A. 10 μl of 50 μM substrate (= 1/200 dilution of 10 mM stock in DMSO, diluted in assay buffer).
Potential inhibitors are screened using the above assay with variable concentrations of test compound. Reactions were initiated by addition of enzyme to buffered solutions of substrate and inhibitor. Ki values were calculated according to equation 1.
[formula] where v0 is the velocity of the reaction, V is the maximal velocity, S is the concentration of substrate with Michaelis constant of KM, and I is the concentration of inhibitor.

Each structure is given as a SMILES string.

For the compound `O=C(NC1CC1)C(=O)C1(NC(=O)[C@H](CC2(F)CCCC2)NC(=O)c2ccc(O)c(F)c2)CCC1`, the Ki (in general, a dissociation constant, usually derived from enzyme kinetics or from competition with a known ligand) in test [1] amounted to 0.00075 µM; in test [2], 1.4 µM; in test [3], 1 µM.
